Reference: PMC7549094 (Journal of Medicinal Chemistry, 2020)

Assays:
[1] = system: h PDE3
[2] = dissolution study and supersaturation stability in FASSIF; assay type: physicochemical; conditions: fumarate cocrystal of 1 vs free base of 2
[3] = system: hr GABAA ag
[4] = system: hr GABAA antag
[5] = system: h Nic(cns)
[6] = system: r BZD

Cc1nc(C)c(C(=O)Nc2ccc(F)c(-c3nc4ncc(-c5ncccc5C)cn4n3)c2)o1 [compound 1, N-(4-Fluoro-3-(6-(3-methylpyridin-2-yl)-[1,2,4]triazolo[1,5-a]pyrimidin-2-yl)phenyl)-2,4-dimethyloxazole-5-carboxamide]
EC50/IC50 [1]: > 30 µM | supersaturation in FASSIF relative to free base of compound 2 [2]: 5 fold | EC50/IC50 [3]: > 30 µM | EC50/IC50 [4]: > 30 µM | EC50/IC50 [5]: > 30 µM | EC50/IC50 [6]: > 30 µM
